From patent publication US6630496B1, “Inhibitors of phospholipase enzymes” (Genetics Institute LLC, priority 1996, dated 2003)

Experiments:
[1] = target: T1, cPLA2 (Homo sapiens, UniProt P47712); assay: Soluble substrate assay (LysoPC); format: biochemical; settings: NA = inhibitory activity not detected; read-out: IC50 (μM) Lyso PC
T1 sequence (P47712 1-749): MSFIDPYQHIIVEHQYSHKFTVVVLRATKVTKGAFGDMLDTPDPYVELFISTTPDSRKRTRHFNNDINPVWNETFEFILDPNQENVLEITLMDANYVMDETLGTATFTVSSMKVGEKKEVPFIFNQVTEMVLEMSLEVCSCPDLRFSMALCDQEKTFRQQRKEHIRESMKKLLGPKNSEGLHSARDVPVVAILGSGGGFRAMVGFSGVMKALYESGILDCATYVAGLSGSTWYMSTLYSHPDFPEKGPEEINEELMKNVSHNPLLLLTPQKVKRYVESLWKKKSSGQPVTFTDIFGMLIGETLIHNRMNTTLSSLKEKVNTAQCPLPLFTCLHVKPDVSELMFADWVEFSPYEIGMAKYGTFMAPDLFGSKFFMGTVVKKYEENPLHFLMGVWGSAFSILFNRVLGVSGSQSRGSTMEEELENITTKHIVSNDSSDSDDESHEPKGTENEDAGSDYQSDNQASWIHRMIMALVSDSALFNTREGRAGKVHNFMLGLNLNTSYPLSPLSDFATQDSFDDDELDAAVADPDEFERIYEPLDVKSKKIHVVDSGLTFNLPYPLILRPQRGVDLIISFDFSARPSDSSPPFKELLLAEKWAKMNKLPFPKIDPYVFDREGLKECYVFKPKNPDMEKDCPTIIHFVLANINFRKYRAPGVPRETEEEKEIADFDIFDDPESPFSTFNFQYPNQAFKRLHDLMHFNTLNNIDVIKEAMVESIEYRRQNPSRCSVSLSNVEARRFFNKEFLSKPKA
Source text: (§1) Tables I-VI also report data for the listed compounds in the “LysoPC” assay and the Coumarine assay (see Example 88 below). In the data columns of the tables, assay results are reported as an “IC50” value, which is the concentration of a compound which inhibits 50% of the activity of the phospholipase enzyme in such assay. Where no numerical IC50 value appears, “NA” denotes that inhibitory activity was not detected from such compound in the corresponding assay and a blank box denotes that the compound was not tested in such assay as of the time of filing of the present application.
(b) Soluble Substrate Assay (LysoPC)
1-[^14C]-palmitoyl-2-hydroxyphosphotidyl-choline (57 mCi/mmol) (final concentration 4.4 μM) was dried under a stream of nitrogen. The lipid was resuspended by vortexing 80 mM Hepes pH 7.5, 1 mM EDTA (1.2×final concentration). A typical assay consisted of lipid suspension (85 μl) to which was added consecutively the inhibitor (5 μl in DMSO) and cPLA2, 200 ng in 80 mM Hepes pH 7.5, 2 mM DTT and […]. This assay was conducted by either the manual assay or automated assay protocol described below.

[2] = target: T1, cPLA2; assay: Coumarine assay (7-hydroxycoumarinyl 6-heptenoate hydrolysis); format: biochemical; settings: 60 μM 7-hydroxycoumarinyl 6-heptenoate
Source text: as §1
7-hydroxycoumarinyl 6-heptenoate was used as a monomeric substrate for cPLA2 as reported previously (Huang, Z. et al., 1994, Analytical Biochemistry 222, 110-115). Inhibitors were mixed with 200 μL assay buffer (80 mM Hepes, pH 7.5, 1 mM EDTA) containing 60 μM 7-hydroxycoumarinyl 6-heptenoate. The reaction was initiated by adding 4 μg cPLA2 in 50 μL assay buffer. Hydrolysis of the 7-hydroxycoumarinyl 6-heptenoate ester was monitored in a fluorometer by exciting at 360 nm and monitoring emission at 460 nm. Enzyme activity is proportional to the increasein emission at 460 nm per minute. In the presence of a cPLA2 inhibitor, the rate of increase is less.

| Substance | IC50 [1] | IC50 [2] |
| --- | --- | --- |
| 3-(2-(5-Benzyloxy-1-(4-benzylbenzoyl)indolinyl)methylthioacetamido)benzoic Acid [Example 52] | 8 µM | 26 µM |
| Methyl 3-(2-(5-Benzyloxy-1-(4-benzylbenzoyl)indolinyl)methylthioacetamido)benzoate [Example 51] | 36 µM |  |
